Screens: PubChem, several laboratories
Rows were chosen to be rich in hits. Some 4.2% of all compounds tested hit in one or more screens of this group.
HDAC3 inhib = HDAC3 deacetylase inhibitors, primary screen, biochemical, fluorescence, cell-free homogeneous; Histone deacetylase 3 (Homo sapiens), O15379; recombinant HDAC3, fluorogenic peptide/trypsin coupled; inhibition, % at 8.3 µM; actives 0.15% (n = 320,000); in the data active means inhibition above about 26%, passing the limit was not always enough
MC4R barr agon = MC4R agonists recruiting beta-arrestin, primary screen, cell-based, luminescence, agonist arm of biased-ligand search; activation, % at 8.9 µM; U2OS MC4R beta-arrestin complementation; percent of melanotan II response, DMSO zero; actives 0.98% (n = 360,000); Melanocortin receptor 4 (Homo sapiens), P32245;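 active means activation above a per-plate cutoff, the mean activation of sample wells on that plate plus 3 SD, cut at about 8% in these data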
Yeast UUG start = alters start codon recognition fidelity in yeast; S. cerevisiae UUG-firefly luciferase reporter, luminescence/redox ratio; activity score, % at 18.7 µM; actives 0.13% (n = 350,000); AID 602363;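 active = replicate mean at a twofold rise or more, about +100% in these data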;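 also: firefly luciferase made from a UUG start codon reports start codon fidelity; reporter light over untreated wells divided by growth signal over untreated wells; some hits fall short of that in this replicate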
ALR H2O2 inh = inhibitors of human sulfhydryl oxidase ALR | 290,000 compounds, 3.8% hits | AID 485317 | inhibition, % (test concentration not listed) | P55789 | purified ALR, DTT oxidation, H2O2 HRP-luminol luminescence;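 active = mean and each replicate at 75% or more; inconclusive = only one of the two met; inactive = neither met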;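 also: stock transfer was 7.5 nL into about 7.5 µL; 0% = neutral wells and 100% = wells with inactivated enzyme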
NALP1 inh = NALP1 inflammasome inhibitors in reconstituted yeast, colorimetric, S. cerevisiae, triplicate retest; S. cerevisiae NALP1/ASC/caspase-1 growth, X-gal OD620, 72 h; inhibition, % at 10 µM; actives 0.61% (n = 280,000); in the data active means inhibition mostly above about 24%, no sharp cut-off; inactive means mostly below about 32%
MC4R antagonist = MC4R antagonists of cAMP signaling, primary screen, cell-based, TR-FRET, antagonist arm of biased-ligand search | MC4R-expressing cells, MTII-stimulated cAMP, LANCE TR-FRET | inhibition, % at 6.5 µM | actives 0.48% (n = 360,000);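 active means inhibition above its plate's cutoff, the mean of tested wells on that plate plus 3 SD, cut at about 29% in these data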;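 further: 0% = Melanotan II alone and 100% = Melanotan II plus saturating MCL0020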
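system = U2OS cells with stable human MC4R expression | also added = Melanotan II challenge after compound preincubation | dosing = one concentration, 6.5 µM nominal | incubation = compound 30 min, challenge 1 h, detection 1 h | measured by = TR-FRET with Eu-cAMP and labeled anti-cAMP, 671 nm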
Starred values were filed as active, the others as inactive; · = no result given.

The chains behind the UniProt entries cited, without tags or fusion partners.
Melanocortin receptor 4 (Homo sapiens), P32245, UniProt P32245, whole entry, looked up: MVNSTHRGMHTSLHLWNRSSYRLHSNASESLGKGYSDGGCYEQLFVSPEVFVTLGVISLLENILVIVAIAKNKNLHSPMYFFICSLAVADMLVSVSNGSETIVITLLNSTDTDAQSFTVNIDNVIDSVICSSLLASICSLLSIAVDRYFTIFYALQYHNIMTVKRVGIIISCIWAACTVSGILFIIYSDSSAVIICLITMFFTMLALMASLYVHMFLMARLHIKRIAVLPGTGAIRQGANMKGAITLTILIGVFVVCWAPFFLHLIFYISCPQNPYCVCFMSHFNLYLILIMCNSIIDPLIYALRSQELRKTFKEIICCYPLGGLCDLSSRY

Sample of the layout, five compounds:
Under each structure: HDAC3 inhib	MC4R barr agon	Yeast UUG start	ALR H2O2 inh	NALP1 inh	MC4R antagonist
- Cc1noc(C)c1S(=O)(=O)N(C)C[C@@H]1OCCCC[C@H](C)Oc2ccc(NS(C)(=O)=O)cc2C(=O)N([C@@H](C)CO)C[C@H]1C
→ ·	·	-2	·	·	·
- COc1ccc(CSc2nc(O)cc(=O)n2CC(C)C)cc1F
→ -1	2	-3	99*	-34	19
- C[C@H](CO)N1C[C@H](C)[C@@H](CN(C)S(=O)(=O)c2cccs2)OCCCC[C@H](C)Oc2ccc(NC(=O)CCC(F)(F)F)cc2C1=O
→ ·	·	2	·	·	·
- C[C@H](CO)N1C[C@H](C)[C@@H](CN(C)Cc2ccc(Oc3ccccc3)cc2)Oc2c(NC(=O)Nc3cccc4ccccc34)cccc2C1=O
→ ·	·	2	·	·	·
- Nc1cccc(-c2cn3cc(C(F)(F)F)cc(Cl)c3n2)c1
→ 1	-2	-32	99*	42	3

This part in full (from the top)
Under each structure: HDAC3 inhib	MC4R barr agon	Yeast UUG start	ALR H2O2 inh	NALP1 inh	MC4R antagonist
- Cc1noc(C)c1S(=O)(=O)N(C)C[C@@H]1OCCCC[C@H](C)Oc2ccc(NS(C)(=O)=O)cc2C(=O)N([C@@H](C)CO)C[C@H]1C
→ ·	·	-2	·	·	·
- COc1ccc(CSc2nc(O)cc(=O)n2CC(C)C)cc1F
→ -1	2	-3	99*	-34	19
- C[C@H](CO)N1C[C@H](C)[C@@H](CN(C)S(=O)(=O)c2cccs2)OCCCC[C@H](C)Oc2ccc(NC(=O)CCC(F)(F)F)cc2C1=O
→ ·	·	2	·	·	·
- C[C@H](CO)N1C[C@H](C)[C@@H](CN(C)Cc2ccc(Oc3ccccc3)cc2)Oc2c(NC(=O)Nc3cccc4ccccc34)cccc2C1=O
→ ·	·	2	·	·	·
- Nc1cccc(-c2cn3cc(C(F)(F)F)cc(Cl)c3n2)c1
→ 1	-2	-32	99*	42	3
- Cc1ccc(S(=O)(=O)N[C@H]2C=C[C@H](CC(=O)NCCCN(C)C)O[C@H]2CO)cc1
→ ·	·	-12	·	·	·
- Oc1ccc(/C=N/NC2=NCCCCC2)cc1
→ 3	1	-14	99*	3	-2
- O=[N+]([O-])c1ccccc1/C=N/NC1=NCCCCC1
→ 0	-2	·	-3	16	0
- COc1cc(/C=N/NC2=NCCCCC2)ccc1O
→ -1	1	-4	95*	-40	-5
- C[C@H](CO)N1C[C@H](C)[C@H](CN(C)Cc2ccc3c(c2)OCO3)Oc2ccc(NC(=O)Cn3cnnn3)cc2C1=O
→ ·	·	-3	·	·	·
- CC(C)C[C@H](NC(=O)c1nc[nH]c1C(=O)NCC(=O)OCc1ccccc1)C(=O)OCc1ccccc1
→ 28*	2	-13	-3	9	16
- CC(C)C[C@H](NC(=O)c1nc[nH]c1C(=O)NCC(=O)OC(C)(C)C)C(=O)OCc1ccccc1
→ 8	9.4*	-5	7	·	19
- CCCC#Cc1cnc2c(c1)C(=O)N([C@H](C)CO)C[C@H](C)[C@H](CN(C)C(=O)Nc1ccccc1F)O2
→ ·	·	24	·	·	·
- COCC#Cc1cnc2c(c1)C(=O)N([C@@H](C)CO)C[C@H](C)[C@H](CN(C)C(=O)c1cnccn1)O2
→ ·	·	-6	·	·	·
- C[C@@H]1CN([C@@H](C)CO)C(=O)c2cc(-c3ccccc3F)cnc2O[C@@H]1CN(C)C(=O)NC1CCCC1
→ ·	·	14	·	·	·
- N#Cc1c(Cl)nc2c(c1C#N)CCCC2
→ -1	3	·	97*	3	1
- COc1ccc(OC(C)C(=O)N2CCN(c3ccccn3)CC2)cc1 (stereo not given)
→ -6	0	-15	1	8	5
- Cc1ccccc1OC(C)C(=O)N1CCN(c2ccccn2)CC1 (stereo not given)
→ -1	-2	-12	-4	32*	1
- CC(=O)Nc1ccc(S(=O)(=O)N[C@@H](C)C(=O)N2CCN(c3ccccn3)CC2)cc1
→ -5	-3	-21	99*	·	4
- Cc1nc2ccc(Br)cn2c(=O)c1Cl
→ 8	-2	-7	-4	-22	-4
- Cc1nc2ccc(Br)cn2c1NC(C)(C)C
→ -7	-2	-9	95*	8	5
- Brc1ccccc1/C=N/Nc1ccc2ccccc2n1
→ 4	-1	·	·	-1	-3
- Brc1ccc(/C=N/Nc2ccc3ccccc3n2)cc1
→ 2	11*	18	-1	18	-13
- CC(C)NC(=O)Nc1ccc2c(c1)C(=O)N([C@H](C)CO)C[C@H](C)[C@@H](CN(C)S(C)(=O)=O)OCCCC[C@H](C)O2
→ ·	·	18	·	·	·
- CCNC(=O)C[C@H]1C=C[C@@H](NC(=O)C2CCC2)[C@@H](CO)O1
→ ·	·	17	·	·	·
- CC(C)(C)C(=O)/C(=C\c1ccc([N+](=O)[O-])cc1)n1cncn1
→ 11	·	·	20	55*	·
- CC(C)(C)C(=O)/C(=C/c1ccc(Cl)cc1)n1cncn1
→ 3	0	-4	1	10	2
- Cc1cc(C)c(NS(=O)(=O)c2ccc(NC(=O)/C=C/C(=O)O)cc2)c(C)c1
→ 3	·	·	5	51*	·
- Cc1cc(C)c(NS(=O)(=O)c2ccc(Cl)c(C(=O)O)c2)c(C)c1
→ 1	0	-11	-7	2	2
- O=C(O)/C=C/C(=O)Nc1ccc(Cc2ccc(NC(=O)/C=C/C(=O)O)cc2)cc1
→ 0	0	·	99*	·	-3
- C[C@@H]1CCCCO[C@H](CN(C)C(=O)CCCN(C)C)[C@@H](C)CN([C@H](C)CO)C(=O)c2cc(NS(C)(=O)=O)ccc2O1
→ ·	·	-5	·	·	·
- COc1cc(/C=C2/C(=N)N3C=CSC3=NC2=O)ccc1OCCCOc1c(C)cccc1C
→ -2	8.4*	-9	-28	17	2
- CCOc1cc(/C=C2/C(=N)N3C=CSC3=NC2=O)ccc1OCCCOc1ccccc1C
→ -3	9.4*	-20	-7	-3	3
- COCC(=O)N(C)C[C@@H]1Oc2ncc(-c3ccc(C#N)cc3)cc2C(=O)N([C@H](C)CO)C[C@@H]1C
→ ·	·	-1	·	·	·
- CC(=O)NC[C@H]1[C@H](c2ccc(C3=CCCCC3)cc2)[C@H](CO)N1C(=O)NC(C)C
→ ·	·	-1	·	·	·
- COc1ccc2ccccc2c1/C=N/NC(=O)c1sc(N)c(C#N)c1C
→ -2	10*	-1	-6	4	-11
- Cc1cc(=O)[nH]c(SCC(=O)Nc2nc3c(s2)CCCC3)n1
→ 2	-2	-13	99*	-5	-2
- CCC(Sc1nc(C)cc(=O)[nH]1)C(=O)Nc1nc2c(s1)CCCC2 (stereo not given)
→ -2	1	-4	24	-14	25
- O=C(CSC1=NCCS1)Nc1nc2c(s1)CCCC2
→ -2	-3	-24	99*	4	2
- C[C@H]1CN([C@@H](C)CO)S(=O)(=O)c2ccc(C#CC3(O)CCCC3)cc2O[C@@H]1CN(C)C(=O)Cc1ccncc1
→ ·	·	-7	·	·	·
- COc1ccccc1C#Cc1ccc([C@@H]2[C@@H](CO)N3CCCCN(C(=O)C4CC4)C[C@@H]23)cc1
→ ·	·	19	·	·	·
- COC(=O)c1ccc(CSc2nc3ccccc3c(=O)n2CC(C)C)o1
→ 8	1	·	-4	20	3
- COC(=O)c1ccc(CSc2nc3ccccc3c(=O)n2Cc2ccco2)o1
→ 1	-2	-10	94*	33	2
